Experimental data as given in ChEMBL document CHEMBL4665788, “Development of Nonpeptidic Inverse Agonists of the Ghrelin Receptor (GHSR) Based on the 1,2,4-Triazole Scaffold” (J Med Chem, 2020).

Chains of the proteins cited; added tags and fusions are not shown.
UniProt Q92847, whole entry: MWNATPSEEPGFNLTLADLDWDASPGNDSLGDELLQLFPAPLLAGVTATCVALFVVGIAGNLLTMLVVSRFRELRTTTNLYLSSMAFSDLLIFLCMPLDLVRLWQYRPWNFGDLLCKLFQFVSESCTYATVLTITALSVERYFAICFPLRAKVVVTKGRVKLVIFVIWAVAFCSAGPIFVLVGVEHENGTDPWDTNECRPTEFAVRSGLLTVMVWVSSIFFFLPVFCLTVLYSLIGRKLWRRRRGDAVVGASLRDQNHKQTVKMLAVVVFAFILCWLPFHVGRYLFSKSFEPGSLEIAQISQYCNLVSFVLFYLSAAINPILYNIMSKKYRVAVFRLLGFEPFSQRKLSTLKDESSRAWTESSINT

The compounds below were run against T1, Growth hormone secretagogue receptor type 1 (Homo sapiens, UniProt Q92847) (assay: Inverse agonist activity at SNAP-tagged human GHSR expressed in HEK293 cells assessed as inhibition of ghrelin-induced IP1 response measured after 30 mins by HTRF assay).
Assay type: functional, cell-based

EC50 | SMILES
73 nM | COc1ccc(Cn2c(CCN3CCOCC3)nnc2[C@@H](Cc2c[nH]c3ccccc23)NC(=O)CNC(=O)/C(C#N)=C/c2ccccc2)cc1

These compounds were tested against T1, Growth hormone secretagogue receptor type 1 (assay: Displacement of red-ghrelin from SNAP-tagged human GHSR expressed in HEK293 cells incubated for 3 hrs at 4 degC or for 1 hr at room temperature by HTRF assay).
Assay type: cell-based

Ki | SMILES
28 nM | COc1ccc(Cn2c(CCc3ccccc3)nnc2[C@@H](Cc2c[nH]c3ccccc23)NC(=O)CNC(=O)C2(C#N)CCOCC2)cc1
200 nM | COc1ccc(Cn2c(CCc3ccccc3)nnc2[C@@H](Cc2c[nH]c3ccccc23)NC(=O)CN(C)C)cc1
130 nM | COc1ccc(Cn2c(CCc3ccccc3)nnc2[C@@H](Cc2c[nH]c3ccccc23)NC(=O)CNC(=O)C#Cc2ccccc2)cc1
4 nM | C=CC(=O)NCC(=O)N[C@H](Cc1c[nH]c2ccccc12)c1nnc(CCc2ccccc2)n1Cc1ccc(OC)cc1
67 nM | COc1ccc(Cn2c(CCN3CCOCC3)nnc2[C@@H](Cc2c[nH]c3ccccc23)NC(=O)CNC(=O)/C(C#N)=C/c2ccccc2)cc1
3.4 nM | COc1ccc(Cn2c(CCc3ccccc3)nnc2[C@@H](Cc2c[nH]c3ccccc23)NC(=O)CNC(=O)C(C)(C)C#N)cc1
115 nM | COc1ccc(Cn2c(CCc3ccccc3)nnc2[C@@H](Cc2c[nH]c3ccccc23)NC(=O)CNC(=O)c2ccccc2)cc1
617 nM | COc1ccc(Cn2c(CCc3ccccc3)nnc2[C@@H](Cc2c[nH]c3ccccc23)NC(=O)CNCC(=O)O)cc1
96 nM | CNCC(=O)N[C@H](Cc1c[nH]c2ccccc12)c1nnc(CCc2ccccc2)n1Cc1ccc(OC)cc1
1600 nM | COc1ccc(Cn2c(CCc3ccccc3)nnc2[C@@H](Cc2c[nH]c3ccccc23)NC(=O)CNC(=O)C#N)cc1
10 nM | COc1ccc(Cn2c(CCc3ccccc3)nnc2[C@@H](Cc2c[nH]c3ccccc23)NC(=O)CNC(C)=O)cc1
6.3 nM | COc1ccc(Cn2c(CCc3ccccc3)nnc2[C@@H](Cc2c[nH]c3ccccc23)NC(=O)CNC(=O)c2ccc(C#N)nc2)cc1
166 nM | COc1ccc(Cn2c(CCc3ccccc3)nnc2[C@@H](Cc2c[nH]c3ccccc23)NC(=O)CNC(=O)C(C#N)Cc2ccccc2)cc1 (some centres not stated)
370 nM | COc1ccc(Cn2c(CCc3ccccc3)nnc2[C@@H](Cc2c[nH]c3ccccc23)NC(=O)CNC(=O)/C=C/c2ccccc2)cc1
220 nM | COc1ccc(Cn2c(CCc3ccccc3)nnc2[C@@H](Cc2c[nH]c3ccccc23)NC(=O)CN2CCC(N)CC2)cc1
130 nM | COc1ccc(Cn2c(CCc3ccccc3)nnc2[C@@H](Cc2c[nH]c3ccccc23)NC(=O)CNC(=O)CN)cc1
230 nM | CCN(CC)CC(=O)N[C@H](Cc1c[nH]c2ccccc12)c1nnc(CCc2ccccc2)n1Cc1ccc(OC)cc1
136 nM | COc1ccc(Cn2c(CCc3ccccc3)nnc2[C@@H](Cc2c[nH]c3ccccc23)NC(=O)CNCc2ccccc2)cc1
56 nM | COc1ccc(Cn2c(CCc3ccccc3)nnc2[C@@H](Cc2c[nH]c3ccccc23)NC(=O)CNC(=O)/C=C/c2ccc(F)cc2)cc1
122 nM | COc1ccc(/C=C(\C#N)C(=O)N[C@H](Cc2c[nH]c3ccccc23)c2nnc(CCc3ccccc3)n2Cc2ccc(OC)cc2)cc1

SMILES | Ki
COc1ccc(Cn2c(CCc3ccccc3)nnc2[C@@H](Cc2c[nH]c3ccccc23)NC(=O)CN)cc1 | 43 nM
